Columns and labels:
Assay type in all cases: biochemical
CDK6/cycD3 = CDK6/cycD3 (Homo sapiens (Human), UniProt Q00534); assay: CDK6/cycD3 kinase Mobility Shift Assay; settings: CDK6/cycD3 15 nM, ATP Km 800 μM, 60 min, 28° C.
Description: (§1) 1. CDK2, CDK4 and CDK6 Kinase Assays:
(§2) CDK2/CycA2 and CDK6/cycD3 were assayed under buffer conditions in the presence of 50 mM HEPES (pH 7.5), 10 mM MgCl2, 0.0015% Brij-35, and 2 mM dithiothreitol, CDK4/CycD3 with buffer condition of 20 mM HEPES (pH 7.5), 10 mM MgCl2, 0.01% Triton X-100, and 2 mM dithiothreitol. Prepare compounds to 50× of the final desired highest inhibitor concentration by 100% DMSO and serial dilution in 3-fold for total of 10 concentrations. […] After assay for 60 min, 180 min, 60 min respectively at 28° C., reactions were terminated with stop solution (50 mM EDTA, 0.015% Brij-35, 0.2% Coating Reagent #3 and 100 mM HEPES (pH 7.5)). Collect conversion on Caliper EZ Reader. IC50 values were calculated by fitting the dose-response curves with Xlfit excel add-in version 4.3.1.

Amino acid sequences for entries named in this document (tags omitted).
UniProt Q00534, whole entry, species assumed: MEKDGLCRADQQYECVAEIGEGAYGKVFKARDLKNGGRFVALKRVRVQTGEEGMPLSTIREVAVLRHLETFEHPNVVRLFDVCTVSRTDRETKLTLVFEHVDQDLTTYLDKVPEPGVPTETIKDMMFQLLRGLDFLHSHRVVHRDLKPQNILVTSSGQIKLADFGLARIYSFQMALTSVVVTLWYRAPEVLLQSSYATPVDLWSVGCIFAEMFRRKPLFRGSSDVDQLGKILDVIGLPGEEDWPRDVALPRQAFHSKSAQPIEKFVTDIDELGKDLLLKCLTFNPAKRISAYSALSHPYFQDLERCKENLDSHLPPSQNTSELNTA
UniProt P11802, whole entry, species assumed: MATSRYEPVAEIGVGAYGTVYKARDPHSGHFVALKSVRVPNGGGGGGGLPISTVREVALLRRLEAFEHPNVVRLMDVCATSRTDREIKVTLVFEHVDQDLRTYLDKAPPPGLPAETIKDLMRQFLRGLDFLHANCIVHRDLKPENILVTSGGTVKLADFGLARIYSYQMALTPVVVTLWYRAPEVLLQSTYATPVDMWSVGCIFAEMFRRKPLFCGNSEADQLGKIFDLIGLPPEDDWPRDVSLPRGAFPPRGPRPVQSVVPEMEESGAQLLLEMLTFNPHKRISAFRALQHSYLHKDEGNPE

CDK4/CycD3 = CDK4/CycD3 (Homo sapiens (Human), UniProt P11802); assay: CDK4/CycD3 kinase Mobility Shift Assay; settings: CDK4/CycD3 10 nM, ATP Km 221 μM, 180 min, 28° C.
Description: as §1, §2

CDK2/CycA2 = CDK2/CycA2 (Homo sapiens (Human), UniProt P24941); assay: CDK2/CycA2 kinase Mobility Shift Assay; settings: CDK2/CycA2 12 nM, ATP Km 39 μM, 60 min, 28° C.
Description: as §1, §2

CC(=O)c1c(C)c2cnc(Nc3ccc(N4CCC5(CCNCC5)CC4)cn3)nc2n(C2CCCC2)c1=O [Compound 5, 2-(5-(3,9-diazaspiro[5.5]undecan-3-yl)pyridin-2-ylamino)-6-acetyl-8-cyclopentyl-5-methylpyrido[2,3-d]pyrimidin-7(8H)-one]
IC50 (CDK6/cycD3): < 25 nM | IC50 (CDK4/CycD3): < 10 nM | IC50 (CDK2/CycA2): > 5000 nM

Source: patent publication US11225492B2, “Heterocycles useful as anti-cancer agents” (Hangzhou Innogate Pharma Co., Ltd., priority 2015, dated 2022)
